Data published in patent publication US20070009965A1, “Novel method for screening for GPCR agonists and/or antagonists from herbs” (Advanced Gene Technology, Corp., priority 2004, published 2007).

Sequences of proteins named here, by UniProt entry; tags and fusion partners are left off.
UniProt P41968, whole entry, species assumed: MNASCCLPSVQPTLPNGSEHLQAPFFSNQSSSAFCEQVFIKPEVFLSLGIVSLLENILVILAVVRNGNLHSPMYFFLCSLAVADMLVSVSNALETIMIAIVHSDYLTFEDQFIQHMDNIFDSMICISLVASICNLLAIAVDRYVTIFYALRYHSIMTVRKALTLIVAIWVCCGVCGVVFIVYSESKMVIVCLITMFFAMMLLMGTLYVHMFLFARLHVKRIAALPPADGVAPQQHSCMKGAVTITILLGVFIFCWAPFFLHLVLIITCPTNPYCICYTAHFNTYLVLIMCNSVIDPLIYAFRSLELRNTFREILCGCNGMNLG

Target: MC3R (Homo sapiens, UniProt P41968)
Test: herbal chip hybridization with MC3R and Cy3-anti-MC3R, fluorescence imaging
Format: binding
Conditions: at least 25 ng/ml NDP-MSH spotted on coated slide; at least 25 μg/ml MC3R; at least 5 μg/ml Cy3-anti-MC3R; laser scanner
Experimental: A coated plastic slide (1) having active epoxy groups on its surface was prepared in accordance with the method disclosed in the Paragraph entitled “Pretreatment of the Plastic Slide and Preparation of the Coated Plastic Slide” under the Example section of U.S. Pat. No. 6,645,719 B2.
In accordance with the teaching of the Paragraph entitled “Loading Samples onto the Coated Plastic Slide in Microarray Format” under the Example section of U.S. Pat. No. 6,645,719 B2, at least 25 ng/ml of α-melanocyte stimulating hormone (NDP-MSH, NH2-Ser-Thr-Ser-Nle-Glu-His-D-Phe-Arg-Trp-Gly-Lys-Pro-Val-OH), that can bind to melanocortin receptors (MCXR), i.e. representatives of GPCRs, were spotted onto the coated plastic slide (1) by Microarrayer BioGrid I (BioRobotic, Cambridge, UK), and then the resultant slide (2) was washed with a blocking buffer (0.1 M sodium borate and 0.1 M ethanolamine) for removing unbound proteins.
In a dark room, under room temperature, at least 25 μg/ml of MC3R, MC4R and MC5R were individually added to the slides (2), and the resultant slides (3) were allowed to stand for 1 hour for completing hybridization. The slides (3) were washed with 1× TBST buffer (50 mM Tris, pH 7.3, 0.15 M NaCl and 0.02% Tween 20) and Milli-Q water, and then dried in an incubator at 37° C. […]

Mean of Fluorescence Intensity (M): 97.00
Substance: NH2-Ser-Thr-Ser-Nle-Glu-His-D-Phe-Arg-Trp-Gly-Lys-Pro-Val-OH [NDP-MSH]
